Test results: patent US20160199497A1, “Cholesterol Ester-Depleting Nanomedicine for Non-toxic Cancer Chemotherapy” (Purdue Research Foundation, priority 2014, published 2016)

Tested on: cancer cells (PC3, MIA-PaCa2, A549, HCT116) and normal cells (hVSMC, BR5)
Experiment: Cell viability of cancer and normal cells
Type: cell-based, human
Details: carrier control

**Q.** With “HSA: human serum albumin, carrier protein of the formulation” as the substance, how does the “contribution to the anti-cancer effect of avasimin” value read?
**A.** not caused by HSA
